Source: the kinase profiling compilation of Christmann-Franck et al. (2016)

The chains behind the UniProt entries cited, without tags or fusion partners. Where a name states a change or a piece, a line headed by the entry shows the natural chain unless it says otherwise.
UniProt Q13237: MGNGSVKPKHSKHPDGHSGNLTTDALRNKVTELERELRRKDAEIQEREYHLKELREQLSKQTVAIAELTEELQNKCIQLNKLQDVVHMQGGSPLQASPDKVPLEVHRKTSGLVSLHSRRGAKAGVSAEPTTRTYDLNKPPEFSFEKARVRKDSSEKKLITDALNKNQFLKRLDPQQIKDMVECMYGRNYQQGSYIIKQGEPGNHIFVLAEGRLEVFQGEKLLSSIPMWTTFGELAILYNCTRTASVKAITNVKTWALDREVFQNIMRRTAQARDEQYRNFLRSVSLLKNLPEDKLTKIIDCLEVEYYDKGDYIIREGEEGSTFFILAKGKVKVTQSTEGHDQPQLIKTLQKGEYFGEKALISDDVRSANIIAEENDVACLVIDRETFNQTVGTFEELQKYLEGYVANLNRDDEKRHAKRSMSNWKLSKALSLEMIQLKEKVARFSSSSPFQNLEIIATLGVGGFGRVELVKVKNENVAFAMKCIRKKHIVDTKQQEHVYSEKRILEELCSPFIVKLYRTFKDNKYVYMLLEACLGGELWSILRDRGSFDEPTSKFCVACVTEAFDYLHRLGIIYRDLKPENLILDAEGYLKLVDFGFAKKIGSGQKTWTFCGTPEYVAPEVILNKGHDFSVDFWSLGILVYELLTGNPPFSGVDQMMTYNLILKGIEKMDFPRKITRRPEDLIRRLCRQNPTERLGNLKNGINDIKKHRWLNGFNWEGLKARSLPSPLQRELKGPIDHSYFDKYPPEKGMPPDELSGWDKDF
UniProt P00519, whole entry, looked up: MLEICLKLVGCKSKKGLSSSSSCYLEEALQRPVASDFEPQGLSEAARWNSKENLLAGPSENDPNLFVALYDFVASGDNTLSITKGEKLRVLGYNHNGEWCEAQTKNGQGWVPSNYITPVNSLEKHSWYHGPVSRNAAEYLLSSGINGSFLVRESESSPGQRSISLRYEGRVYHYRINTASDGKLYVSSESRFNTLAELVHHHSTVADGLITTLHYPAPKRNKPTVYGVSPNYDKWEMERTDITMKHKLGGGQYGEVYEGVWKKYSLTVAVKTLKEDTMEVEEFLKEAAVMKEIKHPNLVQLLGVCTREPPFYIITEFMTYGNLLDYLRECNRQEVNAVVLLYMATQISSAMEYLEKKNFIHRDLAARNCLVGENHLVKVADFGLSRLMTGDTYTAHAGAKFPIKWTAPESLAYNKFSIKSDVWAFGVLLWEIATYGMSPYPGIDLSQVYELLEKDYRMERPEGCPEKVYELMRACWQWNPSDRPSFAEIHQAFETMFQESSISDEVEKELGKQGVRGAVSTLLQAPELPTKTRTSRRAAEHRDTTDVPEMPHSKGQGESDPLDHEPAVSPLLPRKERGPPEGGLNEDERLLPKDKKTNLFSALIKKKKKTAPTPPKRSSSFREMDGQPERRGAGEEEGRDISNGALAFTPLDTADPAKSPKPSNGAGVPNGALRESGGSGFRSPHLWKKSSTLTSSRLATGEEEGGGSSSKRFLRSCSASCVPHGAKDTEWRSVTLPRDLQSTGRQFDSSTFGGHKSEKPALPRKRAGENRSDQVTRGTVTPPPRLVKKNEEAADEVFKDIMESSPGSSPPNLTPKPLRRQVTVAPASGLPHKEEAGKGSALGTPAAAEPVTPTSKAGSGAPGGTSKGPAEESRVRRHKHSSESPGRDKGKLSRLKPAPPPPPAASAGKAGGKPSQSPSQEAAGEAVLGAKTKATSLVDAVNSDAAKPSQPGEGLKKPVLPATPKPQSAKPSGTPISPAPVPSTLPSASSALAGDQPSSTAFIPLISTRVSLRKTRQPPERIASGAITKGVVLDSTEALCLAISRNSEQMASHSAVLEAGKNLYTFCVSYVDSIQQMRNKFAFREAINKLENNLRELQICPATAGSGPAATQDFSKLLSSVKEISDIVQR

What was measured:
PRKG2 (human) = PRKG2 (human) (UniProt Q13237); assay: radiometric filter-binding kinase assay, Kinase HotSpot; conditions: compound 0.5 µM; ATP 10 µM
ABL1 (human) = ABL1 (human) (UniProt P00519); assay: as above; conditions: compound 0.5 µM; ATP 10 µM

Compound `COc1cc2ncnc(Nc3ccc(F)c(Cl)c3)c2cc1OCCCN1CCOCC1` has a residual activity (PRKG2 (human)) of 94.8%.

For `CC[C@@H](CO)Nc1nc(NCc2ccccc2)c2ncn(C(C)C)c2n1`, the residual activity (ABL1 (human)) was 102%.
